The results in this text go back to PubChem BioAssay AID588492 (Sanford-Burnham Center for Chemical Genomics, 2011).

SMILES strings stand for the structures. The entries are a selection whose mix differs from that of the whole data set. The source made the active and inactive calls.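 Rule for the calls: active = compounds giving at least 50% protection of heart cells from peroxide-induced death in the single-dose screen, raw or plate-pattern-corrected value; inactive = the rest.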

The test can be described thus: H9c2 cardiomyocyte survival under peroxide injury – uHTS, H9c2 cells, ATPLite luminescence, primary screen (AID 588492).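 Note: 0% = DMSO wells with peroxide and 100% = DMSO wells without peroxide.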 Conditions: H9c2 cardiomyocytes, 2 h, at 20 µM, hits give high values.
In the case of `CCC(=O)N(c1ccccc1)C1CCN(CCc2ccccc2)CC1`, the protection from H2O2 cell death is inactive: 1.2%.
Regarding `CCC(=O)N(c1ccccc1)C1(COC)CCN(CCc2cccs2)CC1`, the protection from H2O2 cell death was inactive: 2.4%.
The same measure for `CCC(=O)N(c1ccccc1)C1(COC)CCN(CCn2nnn(CC)c2=O)CC1`: inactive: -1.6%.
